Experimental data from ChEMBL document CHEMBL1138027, “Dimethoxybenzo[i]phenanthridine-12-carboxylic acid derivatives and 6H-dibenzo[c,h][2,6]naphthyridin-5-ones with potent topoisomerase I-targeting activity and cytotoxicity” (Bioorg Med Chem Lett, 2004).

Target: T1, DNA topoisomerase 1 (Homo sapiens) (UniProt P11387)
T1 sequence (whole entry): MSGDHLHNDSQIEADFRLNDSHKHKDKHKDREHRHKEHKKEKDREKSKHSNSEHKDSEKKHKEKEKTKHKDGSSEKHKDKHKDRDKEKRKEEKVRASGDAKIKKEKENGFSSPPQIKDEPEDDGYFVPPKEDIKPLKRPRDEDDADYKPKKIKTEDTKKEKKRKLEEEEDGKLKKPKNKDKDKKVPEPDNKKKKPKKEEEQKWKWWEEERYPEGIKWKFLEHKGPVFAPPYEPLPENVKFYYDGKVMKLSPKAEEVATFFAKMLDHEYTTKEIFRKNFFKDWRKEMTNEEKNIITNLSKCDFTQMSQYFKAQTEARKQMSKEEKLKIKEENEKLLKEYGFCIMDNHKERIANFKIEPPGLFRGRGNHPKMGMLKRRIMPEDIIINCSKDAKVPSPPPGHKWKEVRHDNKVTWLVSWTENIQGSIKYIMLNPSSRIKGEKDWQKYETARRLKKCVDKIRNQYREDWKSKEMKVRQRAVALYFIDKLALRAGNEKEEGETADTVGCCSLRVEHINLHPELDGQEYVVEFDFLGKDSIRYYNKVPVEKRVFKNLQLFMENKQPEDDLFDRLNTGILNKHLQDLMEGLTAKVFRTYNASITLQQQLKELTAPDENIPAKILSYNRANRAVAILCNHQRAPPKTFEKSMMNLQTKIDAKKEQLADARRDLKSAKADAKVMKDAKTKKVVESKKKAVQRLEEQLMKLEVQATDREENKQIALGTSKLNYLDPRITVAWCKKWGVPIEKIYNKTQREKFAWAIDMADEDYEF
Test: Relative effective concentration to cleave plasmid DNA with human topoisomerase I; compared to camptothecin=1

An REC of 2.5 was found for COc1cc2c(=O)n(CCN(C)C)c3c4cc5c(cc4ncc3c2cc1OC)OCO5 in this work.
